# Data reported in ChEMBL document CHEMBL4834474, “Terphenyl-Based Small-Molecule Inhibitors of Programmed Cell Death-1/Programmed Death-Ligand 1 Protein-Protein Interaction” (J Med Chem, 2021).
# By UniProt entry, the sequences of proteins in these tests, tags left out.
# UniProt Q9NZQ7, whole entry: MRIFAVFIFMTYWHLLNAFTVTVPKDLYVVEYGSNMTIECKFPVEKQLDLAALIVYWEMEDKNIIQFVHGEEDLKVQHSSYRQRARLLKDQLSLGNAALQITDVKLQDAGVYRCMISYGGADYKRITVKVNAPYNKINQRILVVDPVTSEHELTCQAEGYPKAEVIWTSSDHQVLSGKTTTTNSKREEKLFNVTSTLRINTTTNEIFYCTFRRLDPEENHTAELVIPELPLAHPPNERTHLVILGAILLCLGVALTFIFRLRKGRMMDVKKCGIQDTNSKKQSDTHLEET
# The source made the active and inactive calls. The calls are words filed in the database; no cut-off is given here.
# Molecular target: Programmed cell death 1 ligand 1 (Homo sapiens) (UniProt Q9NZQ7)
# Assay: Binding affinity to human PD-L1 assessed as induction of protein dimerization by 1H NMR method
structure (smiles),measurement,value
Cc1c(-c2ccc(CO)cc2)cccc1-c1ccc2c(c1)OCCO2,Activity,Active
